ChEMBL document CHEMBL1146682, “Synthesis and SAR of potent EGFR/erbB2 dual inhibitors” (Bioorg Med Chem Lett, 2004)

Chains of the proteins cited; added tags and fusions are not shown. Lines headed by an entry give the natural chain unless they say otherwise; changes in a name come on top.
UniProt P04626: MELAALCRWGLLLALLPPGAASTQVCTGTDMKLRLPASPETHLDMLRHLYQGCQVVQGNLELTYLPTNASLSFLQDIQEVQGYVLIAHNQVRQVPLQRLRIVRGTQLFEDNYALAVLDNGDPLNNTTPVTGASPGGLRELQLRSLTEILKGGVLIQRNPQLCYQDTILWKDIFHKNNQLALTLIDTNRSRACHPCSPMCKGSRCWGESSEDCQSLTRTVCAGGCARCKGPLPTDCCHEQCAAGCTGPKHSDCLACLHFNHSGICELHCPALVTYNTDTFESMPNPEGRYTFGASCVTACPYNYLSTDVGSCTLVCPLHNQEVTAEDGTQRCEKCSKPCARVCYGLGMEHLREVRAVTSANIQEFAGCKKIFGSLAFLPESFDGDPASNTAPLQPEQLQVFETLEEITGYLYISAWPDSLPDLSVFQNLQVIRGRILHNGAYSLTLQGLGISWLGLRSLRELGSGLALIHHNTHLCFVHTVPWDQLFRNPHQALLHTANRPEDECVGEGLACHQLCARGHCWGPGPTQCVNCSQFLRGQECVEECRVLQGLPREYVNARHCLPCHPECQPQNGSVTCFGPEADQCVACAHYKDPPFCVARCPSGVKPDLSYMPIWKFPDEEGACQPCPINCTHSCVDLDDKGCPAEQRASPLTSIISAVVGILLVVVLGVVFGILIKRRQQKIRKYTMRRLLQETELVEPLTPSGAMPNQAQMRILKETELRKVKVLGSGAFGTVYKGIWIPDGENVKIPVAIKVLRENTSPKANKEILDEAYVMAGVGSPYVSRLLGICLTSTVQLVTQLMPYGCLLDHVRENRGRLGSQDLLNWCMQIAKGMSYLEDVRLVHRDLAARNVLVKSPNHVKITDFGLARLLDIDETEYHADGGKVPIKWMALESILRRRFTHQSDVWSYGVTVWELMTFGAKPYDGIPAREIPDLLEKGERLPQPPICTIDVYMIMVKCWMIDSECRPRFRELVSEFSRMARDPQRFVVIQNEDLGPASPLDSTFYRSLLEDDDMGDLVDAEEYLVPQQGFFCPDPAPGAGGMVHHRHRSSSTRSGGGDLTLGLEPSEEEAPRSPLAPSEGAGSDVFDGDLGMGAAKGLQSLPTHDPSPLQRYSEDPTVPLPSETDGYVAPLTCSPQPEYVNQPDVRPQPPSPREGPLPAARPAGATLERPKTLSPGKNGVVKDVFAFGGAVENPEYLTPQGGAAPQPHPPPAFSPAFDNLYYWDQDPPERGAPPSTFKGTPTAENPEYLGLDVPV
UniProt P00533: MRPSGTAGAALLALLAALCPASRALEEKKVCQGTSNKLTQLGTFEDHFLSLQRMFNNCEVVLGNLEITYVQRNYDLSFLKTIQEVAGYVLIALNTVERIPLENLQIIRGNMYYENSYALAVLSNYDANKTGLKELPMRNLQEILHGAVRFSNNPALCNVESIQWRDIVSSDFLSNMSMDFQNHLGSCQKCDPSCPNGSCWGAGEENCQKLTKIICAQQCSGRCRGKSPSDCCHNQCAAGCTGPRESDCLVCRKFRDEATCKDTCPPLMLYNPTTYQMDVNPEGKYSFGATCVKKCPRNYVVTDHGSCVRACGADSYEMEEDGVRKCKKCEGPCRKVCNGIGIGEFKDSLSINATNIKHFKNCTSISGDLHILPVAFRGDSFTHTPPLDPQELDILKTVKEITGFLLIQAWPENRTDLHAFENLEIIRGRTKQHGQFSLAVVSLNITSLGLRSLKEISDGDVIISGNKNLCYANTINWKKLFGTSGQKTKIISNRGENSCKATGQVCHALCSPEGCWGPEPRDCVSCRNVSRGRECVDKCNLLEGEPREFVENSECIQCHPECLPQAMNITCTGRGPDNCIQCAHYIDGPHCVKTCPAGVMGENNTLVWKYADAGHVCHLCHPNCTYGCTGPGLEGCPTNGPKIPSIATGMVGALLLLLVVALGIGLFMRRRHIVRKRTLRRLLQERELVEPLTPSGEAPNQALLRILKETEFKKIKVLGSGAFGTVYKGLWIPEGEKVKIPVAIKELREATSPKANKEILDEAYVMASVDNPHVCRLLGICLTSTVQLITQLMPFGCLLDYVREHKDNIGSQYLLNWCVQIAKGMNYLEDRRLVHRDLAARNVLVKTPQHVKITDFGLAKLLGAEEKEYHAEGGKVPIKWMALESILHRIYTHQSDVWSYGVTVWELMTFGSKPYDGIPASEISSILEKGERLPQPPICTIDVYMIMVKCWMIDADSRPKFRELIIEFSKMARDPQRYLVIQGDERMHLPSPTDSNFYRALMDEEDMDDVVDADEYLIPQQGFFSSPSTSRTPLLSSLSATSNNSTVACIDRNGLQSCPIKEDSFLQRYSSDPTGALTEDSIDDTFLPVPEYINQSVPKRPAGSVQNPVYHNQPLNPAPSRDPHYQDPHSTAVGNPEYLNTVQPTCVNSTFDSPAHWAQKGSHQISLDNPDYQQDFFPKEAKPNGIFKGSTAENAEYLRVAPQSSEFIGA

Molecular target: Epidermal growth factor receptor and ErbB2 (HER1 and HER2) (Homo sapiens, UniProt P04626+P00533)
Experiment: In vitro efficacy (average) against HN5 (EGFR) and BT474 (erbB2) tumor cell proliferation
Type: functional

IC50: 540 nM
SMILES: CS(=O)(=O)CCNCCCCOc1ccc2ncnc(Nc3ccc4c(cnn4Cc4cccc(F)c4)c3)c2c1
